Screening data: PubChem, ICCB-Longwood Screening Facility, Harvard Medical School
Shown are actives, neighbours in structure and some others; about 0.43% of the full set was active somewhere.
HCMV NEC inh: disrupts HCMV UL50-UL53 complex binding; HTRF UL50-UL53 interaction, normalized percent inhibition; AID 1918969; 190,000 compounds, 0.15% hits; inhibition, % (no concentration beside the values); in the data active means inhibition above about 27%, passing the limit was not always enough
GIV-Gai inh: blocks GIV peptide binding to rat Galpha-i3; P08753; Galpha-i3/FITC-GIV peptide fluorescence polarization, 90 min; stronger effect = lower value; scaled: aluminum fluoride 0%, vehicle 100%; percent of control (FP), % (no concentration beside the values); 210,000 tested, 0.42% active; AID 1224905;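 active = replicate mean at 85% of control or lower, very high polarization wells dropped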;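 also: wells of about 15 µL received 100 nL stock; the first replicate is given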
* marks the source's active call; other numbers are inactive results; / = no result given.

CC1(C)CC(=O)C2=C(C1)N1C(=C(C#N)C2c2ccccc2F)N=C(N)c2ccccc21 (stereo not drawn)
  HCMV NEC inh = -23 | GIV-Gai inh = 107

O=C(CCCn1c(=O)c2cccn2c2ccccc21)NCCN1CCCCCC1
  HCMV NEC inh = -12 | GIV-Gai inh = 98

CCN(CCC#N)c1ccc(/C=C(\C#N)C(=O)NC(C)C)c(C)c1
  HCMV NEC inh = -77 | GIV-Gai inh = /

CCN(CC)c1ccc(/C=C(/C#N)C(=O)NC(C)C)o1
  HCMV NEC inh = -162 | GIV-Gai inh = -102*

CC(C)CCn1c(CCCC(=O)N2CCc3ccccc32)nc2cccnc21
  HCMV NEC inh = / | GIV-Gai inh = 119

Cc1[nH]cnc1CN1CCc2c(c3ccccc3n2C)C1=O
  HCMV NEC inh = 90* | GIV-Gai inh = /

Cc1[nH]cnc1CN1CCCCCCC1
  HCMV NEC inh = -4 | GIV-Gai inh = 101

Cc1ccccc1/C=C/c1c[nH]c2ccccc12
  HCMV NEC inh = -15 | GIV-Gai inh = 101

OCC[n+]1ccc(/C=C/c2c[nH]c3ccccc23)cc1
  HCMV NEC inh = / | GIV-Gai inh = -18*

COc1cc(CNC(=O)c2ccccc2SC)cc(OC)c1OC
  HCMV NEC inh = -14 | GIV-Gai inh = /

O=c1oc2c(CN3CCCC3)c(O)ccc2cc1-c1ccccc1
  HCMV NEC inh = / | GIV-Gai inh = 115

CC1CCCN(Cc2c(O)ccc3cc(-c4nc5ccccc5s4)c(=O)oc23)C1 (stereo not drawn)
  HCMV NEC inh = -82 | GIV-Gai inh = -32*

CCOc1cccc2cc(-c3nc4ccccc4s3)c(=O)oc12
  HCMV NEC inh = / | GIV-Gai inh = 143

CCN(CC)Cc1c(O)ccc2cc(-c3nc4ccccc4s3)c(=O)oc12
  HCMV NEC inh = / | GIV-Gai inh = -18*

CCn1cc(-c2cc(C(=O)O)no2)cn1
  HCMV NEC inh = 6 | GIV-Gai inh = 108

O=C(O)c1cc2ccccc2c(=O)[nH]1
  HCMV NEC inh = -23 | GIV-Gai inh = 104

O=c1[nH]c(Nc2ccccc2)cc2ccccc12
  HCMV NEC inh = 110* | GIV-Gai inh = -60*

Cc1noc(C)c1S(=O)(=O)NCc1ccccn1
  HCMV NEC inh = 3 | GIV-Gai inh = 102

Cc1ccc(C(=O)NC2(O)C(=O)c3ccccc3C2=O)cn1
  HCMV NEC inh = 54* | GIV-Gai inh = 94

Cc1ccc(C(=O)N/N=C/c2c[nH]c3ccccc23)cn1
  HCMV NEC inh = -56 | GIV-Gai inh = 104

COc1cc(CN2CCC3(CC2)Nc2ccccc2-n2cccc23)cc(OC)c1OC
  HCMV NEC inh = 60* | GIV-Gai inh = 97

COc1ccc(S(=O)(=O)N2CCC3(CC2)Nc2ccccc2-n2cccc23)cc1OC
  HCMV NEC inh = 6 | GIV-Gai inh = 103

CCCc1c(C(=O)NCCc2ccccn2)cnn1-c1ccc(Cl)cc1
  HCMV NEC inh = -14 | GIV-Gai inh = 102

O=C(NCc1ccc(Cl)cc1)c1nn2c(c1Br)NC(c1cccs1)CC2C(F)(F)F (stereo not drawn)
  HCMV NEC inh = 5 | GIV-Gai inh = 95

Cc1ccc(Cl)cc1N1CCN(C(=O)CCC(=O)N2CCSc3ccccc32)CC1
  HCMV NEC inh = -44 | GIV-Gai inh = 101

CCOc1cccc(/C=C2\SC(=S)N(CC)C2=O)c1O
  HCMV NEC inh = -21 | GIV-Gai inh = /

CCOc1cc(/C=C2\SC(=S)N(CC)C2=O)cc(Cl)c1O
  HCMV NEC inh = -19 | GIV-Gai inh = -15*

COc1cccc2c1N=C1OC=CC1C2OC (stereo not drawn)
  HCMV NEC inh = 54* | GIV-Gai inh = /

O/N=C1\CCCc2c1nc(-c1ccccc1Cl)n2O
  HCMV NEC inh = -3 | GIV-Gai inh = /

O/N=C1/CCCc2nn(-c3ccccc3)nc21
  HCMV NEC inh = 56* | GIV-Gai inh = /

CC1(C)CC(=O)C(C2=NC3(CCCC3)Cc3ccccc32)=C(O)C1
  HCMV NEC inh = / | GIV-Gai inh = 111

N#CC(C#N)=C(/C=C/c1ccccc1)C1CC1
  HCMV NEC inh = -3 | GIV-Gai inh = /

CN(C)c1ccc(/C=C/C(=C(C#N)C#N)C2CC2)cc1
  HCMV NEC inh = -39 | GIV-Gai inh = -45*

N#Cc1c(NCc2ccccc2)ncc2c1Nc1ccccc1C2
  HCMV NEC inh = -20 | GIV-Gai inh = 73*

CC(C)c1nc(NCc2ccccc2)c(C#N)c2c1CCCC2
  HCMV NEC inh = -8 | GIV-Gai inh = 100

Cc1ccc2cc3c(N)nn(C(=O)c4ccncc4)c3nc2c1
  HCMV NEC inh = 0 | GIV-Gai inh = 103

O=c1c(-c2ccc(Oc3ccccc3)cc2)[n+]([O-])c2ccccc2n1O
  HCMV NEC inh = -64 | GIV-Gai inh = 116

N#Cc1c(=O)n(O)c2ccccc2[n+]1[O-]
  HCMV NEC inh = -132 | GIV-Gai inh = -33*

CC(=NCCc1c[nH]c2ccccc12)c1ccccc1O
  HCMV NEC inh = 33 | GIV-Gai inh = 100

COc1ccc2cccc3c2c1C=CC3=O
  HCMV NEC inh = -75 | GIV-Gai inh = -89*

CNc1cccc2cccc(OC)c12
  HCMV NEC inh = -43 | GIV-Gai inh = /

NS(=O)(=O)c1ccc(NC(=O)COC(=O)Cc2ccccc2)cc1
  HCMV NEC inh = -36 | GIV-Gai inh = /

CCc1ccc(N2C(=O)NC(=O)/C(=C\c3ccc(OC(C)C(=O)O)cc3)C2=O)cc1 (stereo not drawn)
  HCMV NEC inh = 78* | GIV-Gai inh = 100

CCOc1ccc(N2C(=O)NC(=O)/C(=C\c3ccc(Br)cc3)C2=O)cc1
  HCMV NEC inh = 1 | GIV-Gai inh = 110

Cc1cc(C)cc(N2C(=O)NC(=O)/C(=C\c3ccc(OC(C)C(=O)O)cc3)C2=O)c1 (stereo not drawn)
  HCMV NEC inh = 88* | GIV-Gai inh = 113

CC(Oc1ccc(/C=C2\C(=O)NC(=O)N(c3ccc4c(c3)OCO4)C2=O)cc1)C(=O)O (stereo not drawn)
  HCMV NEC inh = -1 | GIV-Gai inh = 104

CC(=O)Oc1ccc2cc(-c3nc(-c4ccc(Cl)c(Cl)c4)cs3)c(=O)oc2c1
  HCMV NEC inh = / | GIV-Gai inh = 116

CC(=O)Oc1ccc2cc(-c3nc(-c4cccs4)cs3)c(=O)oc2c1
  HCMV NEC inh = / | GIV-Gai inh = 150

O=c1oc2cc(O)ccc2cc1-c1nc(-c2cccs2)cs1
  HCMV NEC inh = / | GIV-Gai inh = -32*

O=c1oc2cc(O)ccc2cc1-c1nc(-c2ccc(Cl)c(Cl)c2)cs1
  HCMV NEC inh = / | GIV-Gai inh = -69*

CCOc1ccccc1NC(=O)NCCCn1c(-c2ccncc2)nc2cccnc21
  HCMV NEC inh = 6 | GIV-Gai inh = 107

CCOC(=O)c1c(NC(=O)COc2ccccc2)sc(C(=O)Nc2cccc(Cl)c2C)c1C
  HCMV NEC inh = -6 | GIV-Gai inh = 102

Cc1ccc2[nH]c3c(c2c1)CCC1C3=NNC1c1ccco1 (stereo not drawn)
  HCMV NEC inh = / | GIV-Gai inh = -66*

Cc1ccc2[nH]c3c(c2c1)CCc1cn[nH]c1-3
  HCMV NEC inh = -16 | GIV-Gai inh = 99

N#CC1=C(N)OC2=C(CC/C2=C/c2ccccc2)C1c1ccccc1 (stereo not drawn)
  HCMV NEC inh = -42 | GIV-Gai inh = -57*

CCN1CC2=C(OC(N)=C(C#N)C2c2ccc(F)cc2)/C(=C/c2ccc(F)cc2)C1 (stereo not drawn)
  HCMV NEC inh = / | GIV-Gai inh = 123

CC(=O)Nc1ccccc1-c1nnc(SC(C)C(=O)Nc2ccc(C)cc2C)[nH]c1=O (stereo not drawn)
  HCMV NEC inh = -20 | GIV-Gai inh = 93

O=C(c1cc2c(=O)[nH]c3ccccc3c2s1)N1CCCC1
  HCMV NEC inh = / | GIV-Gai inh = 58*

O=C(c1cc2c(=O)[nH]c3ccccc3c2s1)N1CCN(c2ccc(F)cc2)CC1
  HCMV NEC inh = -23 | GIV-Gai inh = 100

O=C(O)CCCNc1cc(N2CCCC2)c2noc3c2c1C(=O)c1ccccc1-3
  HCMV NEC inh = -30 | GIV-Gai inh = 111

CCNc1ccc2noc3c2c1C(=O)c1ccccc1-3
  HCMV NEC inh = -188 | GIV-Gai inh = -48*

CCOC(=O)N1CCN(c2cc(NCCC(=O)O)c3c4c(onc24)-c2ccccc2C3=O)CC1
  HCMV NEC inh = / | GIV-Gai inh = -79*

CCOC(=O)C1CCN(c2cc(NCC(=O)O)c3c4c(onc24)-c2ccccc2C3=O)CC1
  HCMV NEC inh = -131 | GIV-Gai inh = -57*

CCN1CCN(c2cc(NCC(=O)O)c3c4c(onc24)-c2ccccc2C3=O)CC1
  HCMV NEC inh = -72 | GIV-Gai inh = 108

CCOC(=O)N1CCN(c2cc(NCCCC(=O)O)c3c4c(onc24)-c2ccccc2C3=O)CC1
  HCMV NEC inh = -210 | GIV-Gai inh = -74*

CCCCNc1cc(N2CCN(C3CCCCC3)CC2)c2noc3c2c1C(=O)c1ccccc1-3
  HCMV NEC inh = -43 | GIV-Gai inh = 229

CCNc1cc(NCC)c2noc3c2c1C(=O)c1ccccc1-3
  HCMV NEC inh = -41 | GIV-Gai inh = 207

Cc1ccc(NC(=O)c2cnn(-c3ccc(C)c(Cl)c3)c2C2CCNCC2)cc1Cl
  HCMV NEC inh = -3 | GIV-Gai inh = 103

CN1/C(=C/C(=O)c2cccs2)C(C)(C)c2ccccc21
  HCMV NEC inh = -22 | GIV-Gai inh = /

CCCCN(c1nc2nc(C)c(Cl)c(C)n2n1)S(=O)(=O)c1ccccc1
  HCMV NEC inh = -2 | GIV-Gai inh = 100

Five compounds picked at random from those above:
CCOC(=O)N1CCN(c2cc(NCCCC(=O)O)c3c4c(onc24)-c2ccccc2C3=O)CC1
  HCMV NEC inh = -210 | GIV-Gai inh = -74*

CCNc1ccc2noc3c2c1C(=O)c1ccccc1-3
  HCMV NEC inh = -188 | GIV-Gai inh = -48*

CCCCNc1cc(N2CCN(C3CCCCC3)CC2)c2noc3c2c1C(=O)c1ccccc1-3
  HCMV NEC inh = -43 | GIV-Gai inh = 229

CCOC(=O)N1CCN(c2cc(NCCC(=O)O)c3c4c(onc24)-c2ccccc2C3=O)CC1
  HCMV NEC inh = / | GIV-Gai inh = -79*

CCN1CCN(c2cc(NCC(=O)O)c3c4c(onc24)-c2ccccc2C3=O)CC1
  HCMV NEC inh = -72 | GIV-Gai inh = 108

Next part
CCC(=O)Nc1ccc[n+](-c2nc3ccccc3nc2C(=C=[N-])C#N)c1
  HCMV NEC inh = -27 | GIV-Gai inh = /

O=C(c1cc(C2CC2)on1)N1CCCC1c1cccc(F)c1 (stereo not drawn)
  HCMV NEC inh = 5 | GIV-Gai inh = 105

CCNc1cc(N2CCCCCC2)c2noc3c2c1C(=O)c1ccccc1-3
  HCMV NEC inh = -69 | GIV-Gai inh = -20*

CC(C)CNc1cc(N2CCCC2)c2noc3c2c1C(=O)c1ccccc1-3
  HCMV NEC inh = -35 | GIV-Gai inh = 133

O=C1c2ccccc2-c2onc3c(Br)cc(NCc4ccccc4)c1c23
  HCMV NEC inh = / | GIV-Gai inh = -21*
